Values of other authors, collected in US20120122787A1, “METHODS FOR TREATING POLYCYSTIC KIDNEY DISEASE (PKD) OR OTHER CYST FORMING DISEASES” (priority 2009, published 2012).

Test system: wild-type rats
Conditions: rat, in vivo; cited from earlier work

In the case of “1-deamino-8-D-arginine vasopressin [dDAVP]”, the “renal effect in wild-type rats” value is listed as “renal hypertrophy”.
